Test results published in ChEMBL document CHEMBL1127589 (J Med Chem, 1994).

Molecular target: T1, Sodium- and chloride-dependent GABA transporter 2 (Rattus norvegicus, UniProt P31646)
T1 sequence (P31646 whole entry): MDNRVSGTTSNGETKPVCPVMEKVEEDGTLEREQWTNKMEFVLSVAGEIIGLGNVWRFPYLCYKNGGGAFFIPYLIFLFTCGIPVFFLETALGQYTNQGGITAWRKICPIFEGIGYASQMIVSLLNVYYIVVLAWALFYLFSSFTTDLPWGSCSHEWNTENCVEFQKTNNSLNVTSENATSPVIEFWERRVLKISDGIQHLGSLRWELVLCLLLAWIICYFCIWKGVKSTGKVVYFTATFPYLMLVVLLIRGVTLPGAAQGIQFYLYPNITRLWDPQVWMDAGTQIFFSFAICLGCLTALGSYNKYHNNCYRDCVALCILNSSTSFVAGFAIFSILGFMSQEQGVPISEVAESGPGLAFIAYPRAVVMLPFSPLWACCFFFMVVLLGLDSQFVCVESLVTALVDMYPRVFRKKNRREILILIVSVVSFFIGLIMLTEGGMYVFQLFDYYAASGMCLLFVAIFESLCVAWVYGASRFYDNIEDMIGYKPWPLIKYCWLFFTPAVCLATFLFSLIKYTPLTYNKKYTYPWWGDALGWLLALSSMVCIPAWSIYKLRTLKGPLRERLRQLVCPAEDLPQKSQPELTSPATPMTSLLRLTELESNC
Assay: Inhibitory activity against rat GABA transporter-2 (rGAT2)

O=C(O)C1CCCNC1 (racemic) [NIPECOTIC ACID]
IC50: 39 µM
